The compound `CN(C)[N+](=O)[O-]` gave a log10 OH rate constant (cm³/molecule/s) of -11.4.

For the origin of these results see the OPERA property sets (Mansouri et al. 2018).
